Assay results reported in ChEMBL document CHEMBL1153969, “N-Hydroxy-(4-oxime)-cinnamide: a versatile scaffold for the synthesis of novel histone deacetylase [correction of deacetilase] (HDAC) inhibitors” (Bioorg Med Chem Lett, 2009).

By UniProt entry, the sequences of proteins in these tests, tags left out.
UniProt Q92769, whole entry: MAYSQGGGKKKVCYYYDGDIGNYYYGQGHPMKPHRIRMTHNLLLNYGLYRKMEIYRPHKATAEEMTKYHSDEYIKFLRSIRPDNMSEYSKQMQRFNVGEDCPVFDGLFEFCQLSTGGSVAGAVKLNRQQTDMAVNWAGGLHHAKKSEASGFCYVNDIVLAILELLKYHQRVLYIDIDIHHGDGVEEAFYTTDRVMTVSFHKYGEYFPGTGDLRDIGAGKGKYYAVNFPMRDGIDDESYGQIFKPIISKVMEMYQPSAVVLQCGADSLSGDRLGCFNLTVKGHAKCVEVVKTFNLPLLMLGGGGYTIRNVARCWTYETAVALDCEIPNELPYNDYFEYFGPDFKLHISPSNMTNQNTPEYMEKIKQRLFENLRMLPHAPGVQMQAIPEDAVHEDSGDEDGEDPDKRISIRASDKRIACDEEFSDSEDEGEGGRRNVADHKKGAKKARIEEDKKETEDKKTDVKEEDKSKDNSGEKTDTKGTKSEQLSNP

Target: Histone deacetylase 2 (Homo sapiens, UniProt Q92769)
Assay: Inhibition of human HDAC2

Q: With `O=C(/C=C/c1ccc(-c2cc(CN3CCOCC3)on2)cc1)NO` as the compound, how does the IC50 read?
A: 13.2 µM
